Screens deposited in PubChem by National Center for Advancing Translational Sciences (NCATS).
Nrf2 activator = activates Nrf2 signaling | AREc32 ARE-luciferase reporter (MCF7-derived line), luminescence, 24 h | Potency, µM (doses to about 46.1 µM), without a hit: at the highest dose activation, usual class: activators | hit rate 0.31% among 410,000 | AID 624171; note: potency is the fitted concentration of half-maximal effect; % of control where 0% means no effect; nearly all actives have a fitted effect of over 65% in size
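Cells of the AREc32 ARE-luciferase line are plated in OPTI-MEM containing 5% FBS and left overnight at 37 deg C. Compounds are pinned in, incubation continues 24 hr, and firefly luciferase signal is then measured.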
A549 tox = A549 cytotoxicity, counter-screen for Nrf2 inhibitors; AID 504648; Potency, µM (titrated, usually from 46 µM), without a hit: at the highest dose activity change, negative = cytotoxicity, usual class: inhibitors; hit rate 0.16% among 390,000; A549 ARE-Fluc cells, CellTiter-Fluor viability, 18-24 h; note: potency is the fitted concentration of half-maximal effect; % is set by controls: 0 for no effect and ±100 for the full control effect
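A549 ARE_Fluc cells in 5% FBS OPTI-MEM were exposed to compounds in concentration-response for 18-24 h at 37 deg C. Viability was read by CellTiter-Fluor fluorescence (Ex 405/Em 525) after 30 min, before the luciferase read.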
Nrf2 block = blocks Nrf2 signaling; hit rate 2.1% among 360,000; Potency, µM (top dose mostly 46 µM), for inactives: at the highest dose activity change, negative = inhibition, usual class: inhibitors; A549 ARE-Fluc reporter, luciferase luminescence, 18-24 h; AID 504444; note: potency is the fitted concentration of half-maximal effect; % is set by controls: 0 for no effect and ±100 for the full control effect; nearly all actives have a fitted effect of over 60% in size
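In this cell-based qHTS, ARE-driven firefly luciferase in A549 cells reports Nrf2 activity; the luminescent signal after BugLite lysis is the measured value, with a prior CellTiter-Fluor read for cell health.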
Mito fusion yeast = blocks mitochondrial division or promotes mitochondrial fusion. S. cerevisiae fusion-defective mutant growth rescue, CellTiterGlo 48 h. Potency, µM (titrated, usually from 46.1 µM), without a hit: top-dose growth rescue (activation), hits mostly activators. hit rate 0.23% among 320,000. AID 485298; note: potency is the fitted concentration of half-maximal effect; % of control where 0% means no effect; nearly all actives have a fitted effect of over 45% in size
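Compounds are tested for their ability to restore growth of mitochondrial fusion-defective yeast strains at non-permissive 37C in YPEG medium over 48 hours. Viability is quantified by luciferase luminescence.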
miR-21 reporter = raises the signal of a miR-21 reporter; Potency, µM (doses to about 38.3 µM), inactives show top-dose reporter change, positive = more light; HeLa miR-21 FLuc reporter, luciferase, 48 h; AID 2288; 340,000 tested, under 10 active; active = well fitted rising curve with a large enough effect; inconclusive = small, poorly fitted or top-dose-only effect; inactive = no such curve, though single readings can be large or run the other way;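 further: % of control where 0% means no effect; miR-21 action dims this reporter so a rising signal means less miR-21 action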
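HeLa cells endogenously expressing miR-21, stably carrying CMV-driven firefly luciferase with a downstream miR-21 binding site, 2000 cells/well. Titrations up to approximately 40 uM, 48 hours; luciferase luminescence read.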
An asterisk follows results filed as active; ? = inconclusive; . = no result; [ ] = remark or other dose. Hits are enriched below; roughly 2.3% of the tested compounds scored in any of these assays. Unless noted, calls come from the whole dose curve; as a rule, active = well fitted curve in the direction sought with a large enough effect; inconclusive = small, poorly fitted or top-dose-only effect, or another doubt; inactive = no such curve, though single readings can be large; an effect the other way counts as inactive or inconclusive.

No.	SMILES	Nrf2 activator	A549 tox	Nrf2 block	Mito fusion yeast	miR-21 reporter
1	O=C(C1CCC(Cn2c(=S)[nH]c3ccccc3c2=O)CC1)N1CCN(c2ccccn2)CC1 (stereo not drawn)	0.2%	?	18.4µM*	-3.9%	-0.4%
2	O=C(C1CCC(Cn2c(=S)[nH]c3ccccc3c2=O)CC1)N1CCN(c2ccccc2)CC1 (stereo not drawn)	-0.6%	-7.1%	?	.	.
3	O=C(/C=C/c1ccc(Cl)cc1)NC(=S)Nc1ccc(N2CCOCC2)c(Cl)c1	-0.9%	-12.3%	16.4µM*	-3.5%	-15.8%
4	O=C(/C=C/c1ccccc1)NC(=S)Nc1ccc(N2CCOCC2)cc1	3.6%	-0.7%	?	-8.0%	-5.6%
5	O=C(/C=C\c1ccco1)Nc1nc(-c2ccccc2)cs1	8.8%	0.1%	11.4%	?	-40.7%
6	CCCn1nnc(NC(=O)/C=C/c2ccccc2)n1	1.0%	0.3%	12.6%	-1.1%	-27.2%
7	O=C(/C=C/c1ccccc1)Nc1nc(-c2ccncc2)cs1	7.2%	?	13µM*	-0.8%	-1.4%
8	O=C(Nc1nc(-c2ccncc2)cs1)C1c2ccccc2Oc2ccccc21	3.8%	?	14.6µM*	11.2µM*	-0.8%
9	Cc1nc(NC(=O)/C=C/c2ccccc2)n[nH]1	7.08µM*	-12.6%	-2.0%	4.1%	0.1%
10	COc1ccc(OC)c(NC(=O)c2cc(-c3ccc(Cl)s3)nc3ccccc23)c1	-0.4%	0.0%	10.0%[9.27 µM]	.	4.0%
11	Cc1cccc(CNC(=O)c2oc3c(c2C)-c2nn(Cc4ccccc4Cl)cc2CC3)c1	0.1%	0.1%	2.7%	.	-16.6%
12	COc1ccc(OC)c(CCNC(=O)C(=O)Nc2ccc3nc4n(c(=O)c3c2)CCCCC4)c1	-0.6%	-3.2%	20.6µM*	3.0%	4.6%
13	COC(=O)[C@@]12CCCCN1[C@H](c1ccc(-c3ccc(F)cc3)cc1)[C@@H]1C(=O)N(C)C(=O)[C@@H]12	-0.7%	-22.5%	?	12.6µM*	.
14	COc1ccc(-c2oc3ncn(CCN4CCOCC4)c(=N)c3c2-c2ccc(OC)cc2)cc1	0.1%	-23.0%	16.4µM*	25.4%	13.7%
15	COc1ccc(Cl)cc1C(=O)O/N=C(\N)c1ccc(Cl)cc1	7.94µM*	3.5%	?	17.7%	-7.3%

Some of these compounds in order of length of the SMILES, high to low.
No.	SMILES	Nrf2 activator	A549 tox	Nrf2 block	Mito fusion yeast	miR-21 reporter
13	COC(=O)[C@@]12CCCCN1[C@H](c1ccc(-c3ccc(F)cc3)cc1)[C@@H]1C(=O)N(C)C(=O)[C@@H]12	-0.7%	-22.5%	?	12.6µM*	.
12	COc1ccc(OC)c(CCNC(=O)C(=O)Nc2ccc3nc4n(c(=O)c3c2)CCCCC4)c1	-0.6%	-3.2%	20.6µM*	3.0%	4.6%
11	Cc1cccc(CNC(=O)c2oc3c(c2C)-c2nn(Cc4ccccc4Cl)cc2CC3)c1	0.1%	0.1%	2.7%	.	-16.6%
3	O=C(/C=C/c1ccc(Cl)cc1)NC(=S)Nc1ccc(N2CCOCC2)c(Cl)c1	-0.9%	-12.3%	16.4µM*	-3.5%	-15.8%
15	COc1ccc(Cl)cc1C(=O)O/N=C(\N)c1ccc(Cl)cc1	7.94µM*	3.5%	?	17.7%	-7.3%
6	CCCn1nnc(NC(=O)/C=C/c2ccccc2)n1	1.0%	0.3%	12.6%	-1.1%	-27.2%

Continuation.
No.	SMILES	Nrf2 activator	A549 tox	Nrf2 block	Mito fusion yeast	miR-21 reporter
16	COc1cc(OC)c(C(=O)O/N=C(\N)c2ccc(C)cc2)cc1OC	4.0%	-3.8%	?	4.4%	-20.9%
17	Cc1occc1C(=O)O/N=C(\N)c1ccc(Cl)cc1	6.31µM*	3.4%	?	17.7%	-40.6%
18	COc1cc(NC(=O)CSc2nnc3c4ccccc4n(C)c3n2)cc(OC)c1OC	.	-0.6%	20.7%	.	.
19	Cc1cccc(Cn2ncc3c4sc(C)cc4n(C)c3c2=O)c1	.	-3.1%	-14.5%	.	.
20	CCC(Sc1nnc(C)n2c1cc1sccc12)C(=O)Nc1ccccc1F (stereo not drawn)	?	11.2%	?	.	-13.6%
21	CCOC(=O)c1cnc2ccc(OC)cc2c1Nc1cccc(C(C)=O)c1	7.6%	?	16.4µM*	.	23.2%
22	CCOC(=O)c1cnc2ccc(OC)cc2c1NCCc1ccccc1	-1.0%	?	23.1µM*	.	?
23	CCOC(=O)c1cnc2ccc(OCC)cc2c1NCc1ccccc1OC	-0.1%	11.6µM*	6.51µM*	1.1%	1.5%
24	CCOC(=O)c1cnc2ccc(OC)cc2c1NCc1ccccc1	4.5%	-7.7%	-13.1%	-16.2%	8.0%
25	Cc1ccc(S(=O)(=O)N2CCN(c3nc(-c4cccs4)nc4ccccc34)CC2)c(C)c1	.	-0.4%	1.2%	.	.
26	CCCNS(=O)(=O)c1ccc2nc(NC(=O)c3ccc(F)cc3)sc2c1	12.7%	-0.2%	.	.	0.8%
27	COc1ccc([N+](=O)[O-])cc1NCc1ccco1	11.2µM*	-7.0%	?	0.8%	-28.2%
28	COc1cc([N+](=O)[O-])ccc1NC(=O)NCc1ccco1	9.8%	-3.7%	-25.8%	-1.0%	-11.0%
29	COc1ccc(/C=C/C(=O)O)cc1S(=O)(=O)NCc1ccco1	-0.3%	0.6%	-12.2%	-0.6%	-0.1%
30	COc1ccc(S(=O)(=O)NCc2ccco2)c2ccccc12	?	?	3.66µM*	-0.6%	-8.0%

Continued:
No.	SMILES	Nrf2 activator	A549 tox	Nrf2 block	Mito fusion yeast	miR-21 reporter
31	CC(=O)c1cccc(NC(=O)c2cccn2-c2nnc(N3CCCCC3)s2)c1	7.5%	-0.5%	?	.	-8.5%
32	O=C(Nc1cccc(S(=O)(=O)NC2=NCCC2)c1)c1ccc(F)cc1	-0.7%	1.0%	?	.	.
33	O=C(Cc1csc(-c2cccc(Cl)c2)n1)Nc1cccc(S(=O)(=O)NC2=NCCC2)c1	0.0%	-4.4%	23.1µM*	-12.7%	.
34	O=C(Nc1cccc(S(=O)(=O)NC2=NCCC2)c1)c1ccc(C(F)(F)F)cc1	3.0%	-1.5%	18.4µM*	.	.
35	O=C(CCl)Nc1cccc(S(=O)(=O)NC2=NCCCCC2)c1	?	-1.4%	20.6µM*	.	.
36	COc1ccc(NC(=O)CN(c2ccc(C)cc2)S(=O)(=O)c2cccs2)cc1	-1.2%	5.6%	20.6%	.	-0.8%
37	CC1Cc2cc(S(=O)(=O)NCCc3ccccc3)ccc2N1C(=O)C1CCC1 (stereo not drawn)	4.0%	12.8%	?	.	-6.7%
38	COc1cccc(CSc2nc3ccncc3n2CC(=O)Nc2ccc(OC)c(OC)c2OC)c1	0.1%	2.1%	26.2%	.	-25.3%
39	CC(=O)c1ccc(NC(=O)c2ccc3c(c2)N(Cc2cccc(Cl)c2)C(=O)c2ccccc2S3(=O)=O)cc1	0.7%	0.0%	11.2%	.	-8.9%
40	N#Cc1nc(Nc2ccc(F)cc2)nc(NC2CCCC2)n1	.	-15.5%	-13.4%	.	.
41	Cc1cc(NCc2ccccn2)nc2ccccc12	0.1%	-0.9%	5.2%	1.5%	-24.6%
42	c1ccc(CNc2ncnc3c2oc2ccccc23)nc1	5.2%	11.6%	?	-6.5%	-58.7%
43	Cc1nc(NCc2ccccn2)c2ccccc2n1	-0.8%	-1.9%	6.51µM*	-0.2%	0.3%
44	c1ccc(CNc2nc(-c3ccccn3)nc3ccccc23)cc1	-1.0%	-17.5%	16.4µM*	-22.4%	?
45	CCc1nc(NCc2ccccn2)c2oc3ccccc3c2n1	-0.5%	-11.8%	9.2µM*	2.8%	21.3%

(further entries)
No.	SMILES	Nrf2 activator	A549 tox	Nrf2 block	Mito fusion yeast	miR-21 reporter
46	CC(C)Cc1ccc(C(C)/C=C2/CCC(CN3CCCCC3)C2=O)cc1 (stereo not drawn)	12.6µM*	17.0%	-8.0%	.	.
47	S=C(Nc1ccc(Nc2ccccc2)cc1)NC1CCCCCC1	4.1%	?	18.4µM*	5.5%	27.0%
48	O=S(=O)(c1cccc(-c2nnc(SCc3nc4ccccc4s3)o2)c1)N1CCOCC1	14.1µM*	6.7%	?	-2.5%	-47.5%
49	Cc1c(C(=O)Nc2ccccc2Br)oc2ccc(S(=O)(=O)N3CCCCCC3)cc12	0.4%	7.4%	.	.	-3.0%
50	COc1ccc(NC(=O)c2ccco2)cc1NC(=O)COc1ccc(C)cc1C	-0.7%	-7.8%	-19.3%	.	-4.3%
51	COc1ccc(/C=N/OCC(=O)NC(c2ccccc2)c2ccccc2)cc1OC	5.3%	0.0%	5.8µM*	3.8%	14.9%
